Literature values, collected in US20260382598A1, “COMBINATION TREATMENT TO PREVENT OR MINIMIZE CHEMOTHERAPY-INDUCED PERIPHERAL NEUROPATHY” (published 2026).

Legend:
[1] = test system: p38α; conditions: read-out: Ki for p38α; cited from earlier work
[2] = test system: p38β; conditions: read-out: Ki for p38β; cited from earlier work
[3] = test system: p38γ; conditions: p38α versus p38γ; cited from earlier work
[4] = test system: p38δ; conditions: p38α versus p38δ; cited from earlier work
[5] = test system: TNFα; conditions: read-out: IC50, whole blood LPS stimulated TNFα; cited from earlier work

Cn1c(NC[C@@H](N)Cc2ccccc2)nc(-c2ccncc2)c(-c2ccc3ccccc3c2)c1=O
Ki [1]: 0.5 nM
Ki [2]: 36 nM
selectivity against p38γ [3]: > 1000 fold
selectivity against p38δ [4]: > 1000 fold
IC50 [5]: 3 nM
